Source: US8362267B2, “Benzophenone thiazole derivatives useful for inhibiting formation of microtubule and method for producing the same” (Chong Kun Dang Pharmaceutical Corp., priority 2008, dated 2013)
Read-outs that look alike come from different tables or passages of the source.

How the values were obtained:
[1] = system: HCT-15 (human colorectal adenocarcinoma, CCL-225); format: in vivo; conditions: for Number of dead animals: HCT-15 xenograft, q4d x 4 (i.p.)
Procedure: (§1) BALB/c male nude mice (4 weeks) available from Central Lab Animal Inc. were used for human xenograft experiments. Sterile food and potable water were freely provided to the mice in an isolated sterile cage and the temperature of the cage was maintained at 23±0.5° C.
(§2) A human cancer model, CX-1 (human colon adenocarcinoma), for xenograft experiment was obtained from the German Cancer Research Center (DKFZ), and HCT-15 (human colorectal adenocarcinoma, CCL-225) and A549 (human lung carcinoma, CCL-185) were obtained from ATCC (American Type Culture Collection, Rockville, Md., USA). Human tumor cells, MKN45 (human gastric adenocarcinoma, #80103) and calu-6 (human lung carcinoma, #30056) were obtained from KCLB (Korean Cell Line. Bank).
(§3) CX-1 was incubated in a 95% air incubator (37° C., 5% CO2) using a DMEM (Dulbecco's Modified Eagle's Medium, Gibco) supplemented with 10% heat-inactivated fetal bovine serum (Gibco) and 1% Antibiotics-Antimycotics (Gibco). Other cell lines were incubated in a 95% air incubator (37° C., 5% CO2) using an RPM1640 (Gibco BRL) medium supplemented with 10% heat-inactivated fetal bovine serum (Gibco) and 1% Antibiotics-Antimycotics (Gibco).
(§4) In vivo human xenograft experiments were performed in accordance with the following procedure. In vitro proliferated human-derived cancer cell lines (CX-1, HCT-15, A549, MKN45, calu-6) were subcutaneously injected into the abdominal region of BALB/c nude mice and were thus proliferated in vivo. After 20 to 25 days, the mice were sacrificed by cervical spine dislocation, solid cancer cells proliferated in the mice were sterilely separated and fresh cancer cells from which connective or necrotic tissues or skin were removed were collected. The fragments of tumor were transplanted to the BALB/c nude mice.
The mice in which cancer cells were proliferated to a predetermined size were collected on the 15th to 30th day after human-derived cancer models were transplanted into the BALB/c nude mice and then used for the tests. For each experimental group, the drug was injected at a dose of 0.1 mL per 10 g of mouse in accordance with a dose schedule, when tumor cells were grown to a size of 100 to 200 mm^3 after tumor transplantation.
After administration, antitumor activity was evaluated based upon an antitumor inhibition rate (IR %) of tumor growth, obtained by comparing a tumor volume measured on the final day with a tumor volume of a control group. As the reference drug, AC7700 (Sanofi-Aventis), which is currently undergoing phase III clinical trials, was used. Tumor size=(short diameter)^2×(long diameter)/2 I.R.(%)=[1−(average tumor size of drug-administered group)/(average tumor size of control group)]×100

[2] = system: MKN45 (human gastric adenocarcinoma, #80103); test: In vivo antitumor activity, human xenograft, stomach cancer model MKN45
Procedure: as §1, §2, §3
as §4, with “mice. […]” for “mice.”
(§5) After administration, antitumor activity was evaluated based upon an antitumor inhibition rate (IR %) of tumor growth, obtained by comparing a tumor volume measured on the final day with a tumor volume of a control group. […]

[3] = system: calu-6 (human lung carcinoma, #30056); test: In vivo antitumor activity, human xenograft, non-small cell lung cancer model calu-6
Procedure: as §1, §2, §3
as §4, with “mice. […]” for “mice.”
as §5

[4] = male, BALB/c nude, mouse, in vivo, ip, 5 mg/kg

## COc1cc(C(=O)c2ccc(-c3csc(NC(=O)[C@@H](N)C(C)C)n3)cc2-n2cncn2)cc(OC)c1OC [Compound 624, (S)—N-(4-(3-(1H-1,2,4-triazol-1-yl)-4-(3,4,5-trimethoxybenzoyl)phenyl)thiazol-2-yl)-2-amino-3-methylbutanamide]
[1]; HCT-15 xenograft model, in words
  pharmaceutical effects as compared with the reference drug: significantly superior pharmaceutical effects
[1]; 5 mg/kg
  Number of dead animals: 0/6
[1]; 7.5 mg/kg
  Number of dead animals: 0/6
[1]; 10 mg/kg
  Number of dead animals: 0/6
[2]; MKN45 xenograft, 7.5 mg/kg, q4d x 4 (i.p.)
  Number of dead animals: 0/6
[2]; MKN45 xenograft, 10 mg/kg, q4d x 4 (i.p.)
  Number of dead animals: 0/6
[2]; [4]
  Number of dead animals: 0/6
[3]; calu-6 xenograft, 7.5 mg/kg, q4d x 4 (i.p.)
  Number of dead animals: 0/6
[3]; calu-6 xenograft, 10 mg/kg, q4d x 4 (i.p.)
  Number of dead animals: 0/6
[3]; [4]
  Number of dead animals: 0/6
